Reference: patent US9125413B1, “Nematicide composition comprising CED-4 peptide” (California State University Fresno, priority 2014, dated 2015)

Test system: C. elegans nematodes at the L1 stage
Assay: Nematicide efficacy of CED-4 peptides, 96-well incubation of C. elegans L1, viability by probe touch
Format: in vivo, Caenorhabditis elegans
Conditions: three days, about 37° C.
Procedure: Assays were performed using 96-well plates. C. elegans nematodes at the L1 stage (refer to FIG. 1) were incubated in each of the 96 wells for three days at about 37° C. at about 0.8 mg/ml peptide concentration for each tested CED-4 peptide. Each of the selected CED-4 peptides were diluted in distilled water to 0.8 mg/ml peptide concentration. Nematodes—numbering between two nematodes and four nematodes—averaging about three nematodes were incubated in 100 μl of CED-4 peptide solution at about 0.8 mg/ml concentration in each well. After a three-day incubation period, the exposed C. elegans nematodes were checked for viability under a dissecting microscope. […]
Each separate well containing nematodes was considered an independent trial experiment. A well in which all of the incubated nematodes were either clearly alive or clearly dead at the end of the incubation period was recorded as one successful experiment. A well in which some or all of the incubated nematodes could not clearly be determined as alive or dead at the end of the incubation period was recorded as one unsuccessful experiment. […]
Each separate well containing nematodes was considered an independent trial experiment. A well in which all of the incubated nematodes were either clearly alive or clearly dead at the end of the incubation period was recorded as one successful experiment. […]

bovine serum albumin [BSA, reference compound]
Percentage % Dead (mortality rate) (0.4 mg/ml): 0%
Percentage % Dead (mortality rate) (0.8 mg/ml): 0%
